The values that follow are results of earlier work, collected in US20140066523A1, “Drug Delivery Compositions And Methods Of Use” (ABYRX, Inc., priority 2011, published 2014).

For this series the following is noted: from the literature (Jandacek 1991).

As to Calcium Laurate, the “Solubility of Solid in Oleic Acid @ 40° C.” value is reported as 22.8%.
